We go through three molecules from ChEMBL document CHEMBL1148329, “Synthesis and structure-activity studies on N-[5-(1H-imidazol-4-yl)-5,6,7,8-tetrahydro-1-naphthalenyl]methanesulfonamide, an imidazole-containing alpha(1A)-adrenoceptor agonist” (J Med Chem, 2004).

Amino acid sequences for entries named in this document (tags omitted).
UniProt P22909, whole entry: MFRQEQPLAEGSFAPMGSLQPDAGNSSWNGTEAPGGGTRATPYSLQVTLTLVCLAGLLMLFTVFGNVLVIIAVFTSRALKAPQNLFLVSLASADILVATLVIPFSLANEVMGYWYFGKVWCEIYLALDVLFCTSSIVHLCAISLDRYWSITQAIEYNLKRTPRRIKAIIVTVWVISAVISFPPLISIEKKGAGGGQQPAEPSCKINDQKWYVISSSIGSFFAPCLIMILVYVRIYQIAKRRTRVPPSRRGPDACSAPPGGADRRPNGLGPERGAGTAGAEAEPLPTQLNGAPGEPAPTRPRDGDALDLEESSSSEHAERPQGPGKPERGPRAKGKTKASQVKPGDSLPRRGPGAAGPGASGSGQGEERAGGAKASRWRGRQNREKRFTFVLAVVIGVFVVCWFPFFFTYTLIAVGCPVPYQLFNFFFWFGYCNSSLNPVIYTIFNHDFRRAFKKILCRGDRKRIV
UniProt P23944, whole entry, looked up: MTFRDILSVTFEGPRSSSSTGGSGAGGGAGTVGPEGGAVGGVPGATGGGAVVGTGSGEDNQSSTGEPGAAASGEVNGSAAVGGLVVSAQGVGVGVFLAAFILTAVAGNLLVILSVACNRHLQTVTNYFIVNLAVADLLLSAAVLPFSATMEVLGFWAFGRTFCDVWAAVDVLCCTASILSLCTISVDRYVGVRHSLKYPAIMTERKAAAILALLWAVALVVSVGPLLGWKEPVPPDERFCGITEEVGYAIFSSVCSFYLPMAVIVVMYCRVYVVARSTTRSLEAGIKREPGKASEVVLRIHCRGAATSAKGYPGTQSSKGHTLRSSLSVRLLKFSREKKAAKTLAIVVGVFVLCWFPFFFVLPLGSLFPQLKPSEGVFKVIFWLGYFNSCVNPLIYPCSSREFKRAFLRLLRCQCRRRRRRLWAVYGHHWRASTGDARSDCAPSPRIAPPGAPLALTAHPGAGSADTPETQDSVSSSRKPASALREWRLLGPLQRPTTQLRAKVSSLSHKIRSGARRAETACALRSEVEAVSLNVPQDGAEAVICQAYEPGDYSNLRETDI
UniProt P15823, whole entry, looked up: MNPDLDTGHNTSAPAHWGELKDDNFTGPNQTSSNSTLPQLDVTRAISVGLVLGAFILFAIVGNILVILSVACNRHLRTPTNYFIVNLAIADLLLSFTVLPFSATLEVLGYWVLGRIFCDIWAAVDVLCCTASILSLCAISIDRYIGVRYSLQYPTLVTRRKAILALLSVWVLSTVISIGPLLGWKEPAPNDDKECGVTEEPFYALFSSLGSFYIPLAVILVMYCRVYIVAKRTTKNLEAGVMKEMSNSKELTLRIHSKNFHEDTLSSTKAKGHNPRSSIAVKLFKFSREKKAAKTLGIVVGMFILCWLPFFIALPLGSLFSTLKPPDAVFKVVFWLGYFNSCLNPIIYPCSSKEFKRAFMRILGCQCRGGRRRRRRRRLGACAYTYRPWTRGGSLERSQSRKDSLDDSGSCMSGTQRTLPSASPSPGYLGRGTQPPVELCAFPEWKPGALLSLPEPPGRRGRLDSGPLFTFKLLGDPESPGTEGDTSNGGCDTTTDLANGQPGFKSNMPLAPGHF
UniProt P08913, whole entry: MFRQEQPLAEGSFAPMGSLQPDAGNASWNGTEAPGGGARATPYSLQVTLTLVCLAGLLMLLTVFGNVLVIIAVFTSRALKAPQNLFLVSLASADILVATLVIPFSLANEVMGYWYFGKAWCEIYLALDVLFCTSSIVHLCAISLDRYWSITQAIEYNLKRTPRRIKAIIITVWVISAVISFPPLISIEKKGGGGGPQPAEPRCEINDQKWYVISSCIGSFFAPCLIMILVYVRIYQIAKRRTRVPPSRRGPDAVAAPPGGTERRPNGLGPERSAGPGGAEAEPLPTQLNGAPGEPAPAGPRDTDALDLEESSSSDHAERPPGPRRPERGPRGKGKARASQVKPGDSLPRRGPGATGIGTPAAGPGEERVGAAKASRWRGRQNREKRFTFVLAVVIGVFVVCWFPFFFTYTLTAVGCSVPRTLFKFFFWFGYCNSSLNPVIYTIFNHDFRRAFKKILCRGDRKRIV

Calls of active or inactive are those of the source. The calls are words filed in the database; no cut-off is given here.

The target of assay [1] is Alpha-2A adrenergic receptor (Rattus norvegicus) (UniProt P22909). The assay is described as follows: Functional agonism to constrict tissue containing alpha-2A adrenergic receptor in rat prostatic vas deferens. Format: tissue-based. In short, it runs like this:
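For α2A, dose–response curves measured inhibition of field-stimulated contraction of rat prostatic vas deferens. pD2 is −log EC50, the concentration giving 50% of total relaxation. Efficacy is percent relative to clonidine. Values are mean ± SEM.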

The target in assay [2] is Alpha adrenergic receptor 1A and 1D (Rattus norvegicus) (UniProt P23944+P43140). The assay can be described thus: Selectivity is ratio of pKi (binding affinity) of Alpha-1D to that of alpha1A. Type of assay: protein assay.
Assay [3] has as its target Alpha adrenergic receptor 1A and 1B (Rattus norvegicus) (UniProt P15823+P43140). The assay is described as follows: Selectivity is ratio of pKi (binding affinity) of alpha-1B receptor to that of alpha-1A receptor. Format: protein assay.
The target in assay [4] is T1, Alpha-1A adrenergic receptor (Rattus norvegicus) (UniProt P43140).
T1 sequence (whole entry): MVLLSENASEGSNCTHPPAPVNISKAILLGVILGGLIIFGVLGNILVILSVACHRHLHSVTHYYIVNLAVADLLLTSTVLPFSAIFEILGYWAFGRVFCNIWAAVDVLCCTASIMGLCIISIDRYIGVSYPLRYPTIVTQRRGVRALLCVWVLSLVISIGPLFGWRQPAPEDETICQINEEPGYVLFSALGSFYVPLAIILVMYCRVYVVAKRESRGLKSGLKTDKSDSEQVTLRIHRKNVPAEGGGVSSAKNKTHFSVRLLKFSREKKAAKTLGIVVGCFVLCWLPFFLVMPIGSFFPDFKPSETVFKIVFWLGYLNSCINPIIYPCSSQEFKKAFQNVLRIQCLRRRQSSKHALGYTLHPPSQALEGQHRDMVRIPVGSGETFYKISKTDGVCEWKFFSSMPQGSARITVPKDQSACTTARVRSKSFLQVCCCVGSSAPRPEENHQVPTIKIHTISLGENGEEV

For assay [5], the target named is Alpha-2A adrenergic receptor (Homo sapiens, UniProt P08913). The assay can be described thus: In vitro binding affinity towards alpha-2A adrenergic receptor of human clone in radioligand binding assay.

In assay [1], `CCS(=O)(=O)Nc1cccc(Cc2c[nH]cn2)c1` gave a pD2 of 5.45.

Take `COc1ccc2c(c1NS(C)(=O)=O)CCCC2c1c[nH]cn1` (stereo not given): the Selectivity in assay [2] came to 1; in assay [3], 3. The pD2 result in assay [4] was “inactive”.

For orientation: Ki means a measure of affinity in units of concentration, obtained from inhibition or displacement. Low values mean a stronger hold on the target, high ones a looser hold on the target. Regarding `CC(=O)Nc1cccc2c1CCCC2c1c[nH]cn1` (stereo not given), the affinity in assay [5] corresponds to a Ki of 550 nM.
